From patent US4305953A, “Synergistic fungicidal compositions” (priority 1979, dated 1981)

System: Botrytic cinerea isolated from four different cultivated plants
Test: interaction on benomyl-resistant Botrytis isolates, overall result in words
Details: benomyl 200 μg./ml.

CCCCNC(=O)n1c(NC(=O)OC)nc2ccccc21 [benomyl, methyl 1-(butylcarbamoyl)-2-benzimidazolecarbamate]
resistance of the isolates: resistant
